Molecular target: Collagenase 3 (Homo sapiens, UniProt P45452)
Experiment: Inhibition of human MMP13 by FRET assay

IC50: 620 nM
SMILES: CNC(=O)[C@@H](NC(=O)c1ccc(-c2ccc(NC(=O)c3cc4ccccc4o3)cc2)o1)C1CCCCC1

Reference: ChEMBL document CHEMBL1155996, “Improving potency and selectivity of a new class of non-Zn-chelating MMP-13 inhibitors” (Bioorg Med Chem Lett, 2009)
